# Apparent affinities of Ab-14 variants for a coronavirus HR2 peptide

The measurements come from Li et al. 2023 (doi:10.1038/s41467-023-39022-2) through the FLAb antibody collection.

Antigen: PDVDLGDISGINAS, a 14-residue peptide of the SARS-CoV-2 spike HR2 region.

Parent scFv Ab-14: VH joined to VL by a 15-residue (Gly4Ser)3 linker. Changes lie in the light chain CDRs alone.
VH: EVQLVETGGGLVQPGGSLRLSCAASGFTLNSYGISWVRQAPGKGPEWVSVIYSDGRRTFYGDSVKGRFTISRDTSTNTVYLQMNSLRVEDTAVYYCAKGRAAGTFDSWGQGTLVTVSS
VL: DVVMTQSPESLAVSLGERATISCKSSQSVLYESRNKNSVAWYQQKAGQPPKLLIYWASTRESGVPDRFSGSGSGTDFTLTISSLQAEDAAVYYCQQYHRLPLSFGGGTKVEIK

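The starting antibody came from a phage panning campaign against this peptide. Designed CDR sequences, proposed from the first random library and measured here. Group labels follow the data file (En: ensemble of fine-tuned language models; GP: Gaussian process model; HC: hill climbing; Gen: genetic algorithm; Gibbs: Gibbs sampling; a sequence that several methods proposed may carry one label only). In AlphaSeq, yeast of one mating type display the scFv and yeast of the other type display the target. Binding brings cells together so that they mate, and sequencing counts the barcode pairs among the diploids. Each replicate has its own calibration line, from reference interactions of the BCL2 family. Each pool was mated in six replicate cultures.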

The parent's light chain CDRs are KSSQSVLYESRNKNSVA, WASTRES, QQYHRLPLS; each variant's own CDRs replace them letter for letter. Variants here have more than six changes. Each Kd is an estimate from the mating assay, the geometric mean of the replicates in which the pair was seen; lower is stronger. An entry "nd" has no value in the source: the pair was not observed among the diploids in any replicate. This suggests poor binding but is not conclusive. The list is sorted by this average, lowest first, undetected variants last. Of ten entries with the parent sequence, four were seen in most replicates (averages 2.2 nM to 240 nM), three in one and three in none, so single entries are noisy. In the paper, a design with two or fewer of six values counts as a poor binder. Values of this round are not directly comparable with the first-round values of the same sequences. Background: pairings of all light chain designs with three empty control strains gave a value in 4% of cases (median 430 nM, 5th percentile 38 nM). Values in that range, when seen in few replicates, are hard to tell from nonspecific mating. For each scFv, signals with the empty controls are counted beside the result.

With KVSQQNLYEQRNANNVA | NASYRES | QQYHRLPLS [GP_Gibbs] the result was 350 pM (6 of 6 replicates; controls 0 of 18).
With MISDLTEYGSRNKNSVA | DLSTRGS | QQYHRLPLS [En_HC] the result was 390 pM (6 of 6 replicates; controls 4 of 18).
With KLYQSQLYLSRNVNAVA | NASQRMS | QQYHRLPLS [GP_Gibbs] the result was 840 pM (6 of 6 replicates; controls 1 of 18).
With IMSEGQERDASRLNNIA | DHYTRAT | QQYARLPLH [En_Gibbs] the result was 1.0 nM (6 of 6 replicates; controls 2 of 18).
With TLTQVQGMESHNHDSVA | DLSTRGS | QQYHRLPLS [En_HC] the result was 1.1 nM (6 of 6 replicates; controls 0 of 18).
With KVQQSWEYESRNSNNVA | MGSTRED | QQYHRLPLS [GP_Gibbs] the result was 1.3 nM (6 of 6 replicates; controls 0 of 18).
With KLSQSFLYESMNKNSVA | EASQRIW | QQYHRLPLS [GP_Gibbs] the result was 1.3 nM (6 of 6 replicates; controls 2 of 18).
With KWSQSHLYESRNWNAVA | EASQRPS | QQYHRLPLS [GP_Gibbs] the result was 1.4 nM (6 of 6 replicates; controls 1 of 18).
With KISGSYLGESRNWNAVA | EASQREQ | QQYHRLPLS [GP_Gibbs] the result was 1.4 nM (6 of 6 replicates; controls 0 of 18).
With KLSQATRMESRNKASVA | ENSTRES | QQYFRLPLA [En_HC] the result was 1.6 nM (6 of 6 replicates; controls 0 of 18).
With KFEGSEGMESRNKNSVA | NASHRMS | QQYHRLPLS [GP_Gibbs] the result was 1.7 nM (6 of 6 replicates; controls 1 of 18).
With HLGGLMTWESKAKNSVA | QSNTRAE | QQYHRLPLS [En_HC] the result was 1.8 nM (6 of 6 replicates; controls 2 of 18).
With KLSMVTGHMSVSKNNVA | EMETRAN | QQYDRLPLS [En_Gen] the result was 2.2 nM (6 of 6 replicates; controls 2 of 18).
With KLDMWEPYGSRNKNSVA | SASTRCS | QQYHRLPLS [GP_Gibbs] the result was 2.3 nM (6 of 6 replicates; controls 1 of 18).
With TINQSAQMESHNKNSVA | DLNVRGS | QQYDRLPLS [En_HC] the result was 2.4 nM (6 of 6 replicates; controls 0 of 18).
With ILSQSVLMGSHLKNSVA | QASTRFA | QQYHRLPLM [En_HC] the result was 3.3 nM (6 of 6 replicates; controls 1 of 18).
With KLMMSHLYESRNSNSVA | NASYREQ | QQYHRLPLS [GP_Gibbs] the result was 3.9 nM (6 of 6 replicates; controls 0 of 18).
With KLGGATRFESSNKASIA | NNSTREE | QQYHRLPLS [En_HC] the result was 4.3 nM (6 of 6 replicates; controls 3 of 18).
With KLYYNEGTEMFRKDNIA | DNDLRER | QQYDRLPLS [En_Gen] the result was 5.1 nM (6 of 6 replicates; controls 0 of 18).
With MGLESYYQGVHEMNNVA | EGDQKLD | QQYYRLPLA [En_Gibbs] the result was 6.1 nM (6 of 6 replicates; controls 0 of 18).
With TISQITSLFSQTINNVA | EVSTREE | QQYDRLPLS [En_Gen] the result was 7.1 nM (6 of 6 replicates; controls 0 of 18).
With MLSMVTEGMVRKHDAVA | DNSTRED | QQYDRLPLS [En_Gen] the result was 7.4 nM (6 of 6 replicates; controls 2 of 18).
With KLMHYKLGENGMRGSVA | NMTIREY | QQYFHLPLF [En_Gibbs] the result was 20 nM (6 of 6 replicates; controls 0 of 18).
With KLSGLVNFFGHAINSVA | EMETREN | QQYDRLPLS [En_HC] the result was 23 nM (6 of 6 replicates; controls 0 of 18).
With TLYGLSVSMSKNVNSVA | EMTTRED | QQYDRLPLV [En_Gen] the result was 24 nM (6 of 6 replicates; controls 2 of 18).
With MISQVYNMGSFAINSVA | QASQRNA | QQYDRLPLI [En_Gen] the result was 26 nM (6 of 6 replicates; controls 0 of 18).
With KLSSLQFDSYMEKENVA | ESTQVFN | QQYHRLPLA [En_Gibbs] the result was 28 nM (6 of 6 replicates; controls 1 of 18).
With HISQSVGMTSRNKNSVA | ENSTRED | QQYDRLPLS [En_HC] the result was 29 nM (6 of 6 replicates; controls 2 of 18).
With KVSEFMRGLMGRKDSIA | DNNTRQA | QQYDRLPLS [En_Gen] the result was 32 nM (5 of 6 replicates; controls 1 of 18).
With KINGVLINNGEDMNAIA | QENISNL | QQYFHLPLS [En_Gibbs] the result was 34 nM (6 of 6 replicates; controls 2 of 18).
With KIMQSLNYESFNKNSVA | GQTTRER | QSYHRLPLS [En_HC] the result was 36 nM (5 of 6 replicates; controls 1 of 18).
With HISQMVMYGSCNKNNVA | QVSIRGE | QQYHRLPLS [En_HC] the result was 110 nM (1 of 6 replicates; controls 0 of 18).
With ILYDSVGTLSRNGNSVA | DNSTRES | QQYDRLPLS [En_HC] the result was 120 nM (6 of 6 replicates; controls 3 of 18).
With MISQLMNMGQFAINSVA | QASIRNA | QQYDRLPLV [En_Gen] the result was 160 nM (5 of 6 replicates; controls 0 of 18).
With KVSEFMRGLMSRKDSIA | DNNTRGS | QQYDRLPLS [En_Gen] the result was 410 nM (5 of 6 replicates; controls 0 of 18).
With KLTAAQNYYGQNYSNIA | EEINSLQ | QQYHHLPLS [En_Gibbs] the result was 650 nM (4 of 6 replicates; controls 2 of 18).
With NMKVGLNFEDIQHQAIA | EVEVRES | QQYARLPLT [En_Gibbs] the result was 2.2 µM (2 of 6 replicates; controls 1 of 18).
With MISQLMNMGSFRINSVA | QAQTRNE | QQYDRLPLT [En_Gen] the result was nd (0 of 6 replicates; controls 0 of 18).
With KVSIFMLTMDNAWSSIA | NMAATRT | QQYQRLPLS [En_Gibbs] the result was nd (0 of 6 replicates; controls 0 of 18).
With TISQMTFIESKNRNNVA | EMTTREN | QDYDRLPLS [En_HC] the result was nd (0 of 6 replicates; controls 1 of 18).
With IVSQLMIWGMHLKNSIA | EAETRIN | QQYDRLPLF [En_Gen] the result was nd (0 of 6 replicates; controls 0 of 18).
With KLYYDAAQRVMDAENIA | EKTESYQ | QQYHRLPLS [En_Gibbs] the result was nd (0 of 6 replicates; controls 0 of 18).

The first 6 entries again:

For KVSQQNLYEQRNANNVA | NASYRES | QQYHRLPLS [GP_Gibbs], the assay gave 350 pM (6 of 6 replicates; controls 0 of 18).
For MISDLTEYGSRNKNSVA | DLSTRGS | QQYHRLPLS [En_HC], the assay gave 390 pM (6 of 6 replicates; controls 4 of 18).
For KLYQSQLYLSRNVNAVA | NASQRMS | QQYHRLPLS [GP_Gibbs], the assay gave 840 pM (6 of 6 replicates; controls 1 of 18).
For IMSEGQERDASRLNNIA | DHYTRAT | QQYARLPLH [En_Gibbs], the assay gave 1.0 nM (6 of 6 replicates; controls 2 of 18).
For TLTQVQGMESHNHDSVA | DLSTRGS | QQYHRLPLS [En_HC], the assay gave 1.1 nM (6 of 6 replicates; controls 0 of 18).
For KVQQSWEYESRNSNNVA | MGSTRED | QQYHRLPLS [GP_Gibbs], the assay gave 1.3 nM (6 of 6 replicates; controls 0 of 18).